For one assay, the target named is CDK4/D3 (Homo sapiens (Human), UniProt P11802). Put plainly: CDKs inhibition assay (ADP-Glo Kinase Assay), CDK4. Background: ADP-Glo first removes unused ATP, then detects ADP through luciferase.
A further assay deals with CDK6/D3 (Homo sapiens (Human), UniProt Q00534). Put plainly: CDKs inhibition assay (ADP-Glo Kinase Assay), CDK6.
Assay [1] concerns human breast cancer cell line MDB-MA-231. The assay is described as follows: Proliferation inhibition assay on human breast cancer cell line MDA-MB-231 (DAPI staining, In Cell Analyzer). It counts as cell-based. Particulars: MDA-MB-231, 72 h, read-out: IC50 for inhibition of proliferation of human breast cancer cell line MDB-MA-231.

The chains behind the UniProt entries cited, without tags or fusion partners. Where a name states a change or a piece, a line headed by the entry shows the natural chain unless it says otherwise.
UniProt P11802: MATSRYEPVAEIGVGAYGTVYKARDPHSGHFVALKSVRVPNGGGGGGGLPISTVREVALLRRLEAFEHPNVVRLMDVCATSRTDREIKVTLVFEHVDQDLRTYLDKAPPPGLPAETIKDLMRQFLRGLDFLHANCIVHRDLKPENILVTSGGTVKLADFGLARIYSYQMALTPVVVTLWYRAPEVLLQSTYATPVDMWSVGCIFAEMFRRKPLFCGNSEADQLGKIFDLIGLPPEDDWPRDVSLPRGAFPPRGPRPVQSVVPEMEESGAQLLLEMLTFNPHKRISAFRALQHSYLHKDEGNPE
UniProt Q00534, whole entry: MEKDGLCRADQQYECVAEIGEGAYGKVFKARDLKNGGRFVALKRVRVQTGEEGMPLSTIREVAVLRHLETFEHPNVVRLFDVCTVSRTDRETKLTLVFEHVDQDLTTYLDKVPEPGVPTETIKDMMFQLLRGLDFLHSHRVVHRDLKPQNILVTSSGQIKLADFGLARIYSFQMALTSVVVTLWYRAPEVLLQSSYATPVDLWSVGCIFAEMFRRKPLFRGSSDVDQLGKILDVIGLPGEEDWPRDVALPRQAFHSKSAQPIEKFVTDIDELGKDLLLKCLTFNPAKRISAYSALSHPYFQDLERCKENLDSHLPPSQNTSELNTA

Experimental findings from patent publication US10696678B2, “Kinase inhibitor, and preparing method and pharmaceutical use thereof” (GAN & LEE PHARMACEUTICALS, priority 2015, dated 2020) are described below.

Regarding `Fc1cnc(Nc2ccc(N3CCNCC3)cn2)nc1-c1cc(F)c2nc3n(c2c1)CCCCC3` [Example 17, 5-Fluoro-4-(4-fluoro-7,8,9,10-tetrahydro-6H-benzo[4,5]imidazo[1,2-a]azepan-2-yl)-N-(5-(piperazin-1-yl)pyridin-2-yl)pyrimidin-2-amine], the IC50 at CDK4/D3 was 236 nM; on CDK6/D3, 1.9 nM; in assay [1] it was 555 nM.
Regarding `CC1(C)CCc2nc3ccc(-c4nc(Nc5ccc(N6CCNCC6)cn5)ncc4F)cc3n21` [Example 25, 4-(1,1-Dimethyl-2,3-dihydro-1H-benzo[d]pyrrolo[1,2-a]imidazol-7-yl)-5-fluoro-N-(5-(piperazin-1-yl)pyridin-2-yl)pyrimidin-2-amine], the IC50 in assay [1] is 145 nM.
On the same count and under the same terms, under `Cc1nc(Nc2ncc(F)c(-c3cc(F)c4nc5n(c4c3)C(C)CC5)n2)ccc1N1CCN(C)CC1` (stereo not shown) [Example 41, 5-Fluoro-4-(5-fluoro-1-methyl-2,3-dihydro-1H-benzo[d]pyrrolo[1,2-a]imidazol-7-yl)-N-(6-methyl-5-(4-methylpiperazin-1-yl)pyridin-2-yl)pyrimidin-2-amine] stands 549 nM; under `CC1CN(c2ccc(Nc3ncc(F)c(-c4cc(F)c5nc6n(c5c4)C(C)CC6)n3)nc2)CCN1` (stereo not shown) [Example 53, 5-Fluoro-4-(5-fluoro-1-methyl-2,3-dihydro-1H-benzo[d]pyrrolo[1,2-a]imidazol-7-yl)-N-(5-(3-3-methylpiperazin-1-yl)pyridin-2-yl)pyrimidin-2-amine], 600 nM.
For `CC1(C)Cc2nc3c(F)cc(-c4nc(Nc5ccc(N6CCNCC6)cn5)ncc4F)cc3n2C1` [Example 55, 5-Fluoro-4-(5-fluoro-2,2-dimethyl-2,3-dihydro-1H-benzo[d]pyrrolo[1,2-a]imidazol-7-yl)-N-(5-(piperazin-1-yl)pyridin-2-yl)pyrimidin-2-amine], the IC50 against CDK4/D3 amounted to 4 nM; on CDK6/D3, 18.7 nM; in assay [1], 377 nM.
Consider `CC1CCc2nc3c(F)cc(-c4nc(Nc5ccc(N6CCNCC6)cn5)ncc4F)cc3n21` (stereo not shown) [Example 59, 5-Fluoro-4-(5-fluoro-1-methyl-2,3-dihydro-1H-benzo[d]pyrrolo[1,2-a]imidazol-7-yl)-N-(5-(piperazin-1-yl)pyridin-2-yl)pyrimidin-2-amine], for which the IC50 in assay [1] was found to be 1310 nM.
`CC1CCc2nc3c(F)cc(-c4ccnc(Nc5ccc(N6CCNCC6)cn5)n4)cc3n21` (stereo not shown) [Example 72, 4-(5-Fluoro-1-methyl-2,3-dihydro-1H-benzo[d]pyrrolo[1,2-a]imidazol-7-yl)-N-(5-(piperazin-1-yl)pyridin-2-yl)pyrimidin-2-amine]: the IC50 was 15.8 nM against CDK4/D3, 9.9 nM against CDK6/D3 and 817 nM in assay [1].
